Measured values published in patent publication US20260098268A1, “COMPOSITIONS AND METHODS TO TREAT ALZHEIMER'S DISEASE AND OTHER BRAIN DISEASES” (priority 2022, published 2026).
Read-outs that look alike come from different tables or passages of the source.

Chains of the proteins cited; added tags and fusions are not shown.
UniProt P47746, whole entry: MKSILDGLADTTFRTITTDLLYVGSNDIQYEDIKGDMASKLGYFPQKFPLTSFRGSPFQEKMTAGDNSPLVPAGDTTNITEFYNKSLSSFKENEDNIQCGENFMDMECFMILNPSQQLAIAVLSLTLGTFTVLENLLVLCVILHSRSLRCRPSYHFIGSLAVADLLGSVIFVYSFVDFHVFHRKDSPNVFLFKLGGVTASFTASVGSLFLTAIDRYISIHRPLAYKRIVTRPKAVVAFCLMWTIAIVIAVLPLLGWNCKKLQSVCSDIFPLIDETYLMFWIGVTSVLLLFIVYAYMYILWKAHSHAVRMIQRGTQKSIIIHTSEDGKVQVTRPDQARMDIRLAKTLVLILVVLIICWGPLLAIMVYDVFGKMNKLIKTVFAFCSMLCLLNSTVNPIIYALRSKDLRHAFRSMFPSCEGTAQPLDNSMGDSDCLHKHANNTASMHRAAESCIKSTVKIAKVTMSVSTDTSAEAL

Target: CB1R (Mus musculus, UniProt P47746)
Settings: WIN 5 μM

With `Cc1c(C(=O)c2cccc3ccccc23)c2cccc3c2n1[C@H](CN1CCOCC1)CO3` [WIN, WIN55,212-2] the “suppression of IPSCs” value (WT mice, hippocampal CA1 pyramidal neurons) was “about 40%”, the “WIN-induced suppression of IPSCs compared with WT” value (nKO (neuron-specific MAGL knockout) mice) was “significantly reduced” and the “WIN-induced suppression of IPSCs compared with WT” value (tKO (total MAGL knockout) mice) was “significantly reduced”.
